Our source for the IC50 values is patent publication US8232270B2, “Bivalent (−)-meptazinol compounds and/or their salts, and their preparation and futilization” (priority 2006, dated 2012).

Amino acid sequences for entries named in this document (tags omitted). Residues count along the entry.
UniProt P22303, 32-614: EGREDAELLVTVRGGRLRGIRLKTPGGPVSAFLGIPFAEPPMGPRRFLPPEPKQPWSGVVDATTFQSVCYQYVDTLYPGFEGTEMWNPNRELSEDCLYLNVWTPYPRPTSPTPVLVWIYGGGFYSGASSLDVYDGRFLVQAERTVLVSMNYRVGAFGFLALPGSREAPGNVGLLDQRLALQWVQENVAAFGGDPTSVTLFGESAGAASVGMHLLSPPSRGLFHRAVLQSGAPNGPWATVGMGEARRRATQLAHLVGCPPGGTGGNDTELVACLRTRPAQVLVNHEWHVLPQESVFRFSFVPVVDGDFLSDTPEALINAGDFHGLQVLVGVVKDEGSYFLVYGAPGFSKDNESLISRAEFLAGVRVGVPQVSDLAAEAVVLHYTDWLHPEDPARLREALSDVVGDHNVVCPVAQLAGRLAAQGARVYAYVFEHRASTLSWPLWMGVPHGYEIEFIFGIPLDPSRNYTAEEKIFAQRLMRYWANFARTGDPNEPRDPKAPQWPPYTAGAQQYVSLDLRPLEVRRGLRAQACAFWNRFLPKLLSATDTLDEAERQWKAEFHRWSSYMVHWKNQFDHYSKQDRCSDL

pIC50: −log10 of the molar value.

The experiment concerns the target T1, AChE-induced Aβ (1-40) aggregation (human recombinant AChE) (Homo sapiens, UniProt P22303).
T1 construct: purchased Sigma-Aldrich
In words: Inhibition of AChE-induced Aβ aggregation, thioflavin T fluorescence. The class given is biochemical. The following applies: extrapolated from inhibition curves; read-out: IC50 ± SEM, AChE-induced Aβ aggregation. How it is done:
Aliquots of 2 μL Aβ (1-40) peptide (Biosource), lyophilized from 2 mg/mL HFIP solution and dissolved in DMSO, were incubated for 48 h at room temperature in 0.215 M sodium phosphate buffer (pH 8.0) at a concentration of 230 μM. For coincubation experiments, aliquots (16 μL) of human recombinant AChE (Sigma-Aldrich) (final concentration of 2.3 μM) and AChE in the presence of 2 μL of the tested inhibitors were added. Each assay was run in duplicate. To quantify amyloid fibril formation, the thioflavin T fluorescence method was then applied.
After incubation, the samples containing Aβ, Aβ plus AChE, or Aβ plus AChE in the presence of inhibitors were diluted with 50 mM glycine-NaOH buffer (pH 8.5) containing 1.5 μM thioflavin T (Sigma-Aldrich) to a final volume of 2.0 mL. Fluorescence was monitored with excitation at 446 nm and emission at 490 nm. The percent inhibition of the AChE-induced aggregation due to the presence of increasing concentrations of the inhibitor was calculated by the following expression: 100−(IFi/IFo×100), where IFi and IFo were the fluorescence intensities obtained for Aβ plus AChE in the presence and in the absence of inhibitor, respectively, after subtracting the fluorescence of respective blanks. Inhibition curves and linear regression parameters were obtained for each compound, and the IC50 was extrapolated.

For the molecule `CC[N+](C)(CC)CCC[n+]1c(-c2ccccc2)c2cc(N)ccc2c2ccc(N)cc21` [Propidium iodine, reference compound], the pIC50 – broadly, the negative decadic logarithm of the IC50, by convention in mol/L – is 3.80.
